{
  "source": "patent US20260115173A1",
  "about": "“COMBINATION OF M[…] NALTREXONE FOR SUBSTANCE USE DISORDERS” (University of Houston System, priority 2022, published 2026)",
  "test_system": "female Sprague Dawley rats",
  "assay": "Operant alcohol (10%) self-administration, FR2 schedule, 60-min sessions",
  "type": "in vivo, rat",
  "settings": "0.3-3.0 mg/kg IP, combination vs single drugs",
  "description": "Animals. A total of 10 female Sprague Dawley rats (Charles River, Wilmington, MA) were used for the alcohol self-administration studies. Separate groups of female rats (N=16) were used to assess the impact of vehicle (control, N=4), MG (N=4, 3.0 mg/kg), NTX (N=4, 3 mg/kg) and MG+NTX (N=4, 3.0 mg/kg/3.0 mg/kg) on locomotor activity in open field chambers. These same rats were used in the cFos immunohistochemistry study. Rats were initially housed 3-5 to a cage in polypropylene cages housed in circular towers (Animal Care Systems, Inc, Centennial, CO) located within a temperature- and humidity-controlled vivarium that was maintained on a 12:12 light/dark cycle (lights on at 6 AM). Rats weighed about 250-350 gm at the start of the experiment and were at least 100 days old. Food and water were available ad libitum throughout the study. […]\nStatistical Analysis. The self-administration data were analyzed with ANOVAs to compare the two measures of appetitive responding (numbers of active lever presses and head entries) and the two measures of consummatory responding (numbers of reinforcers earned and estimated total alcohol intake in g/kg). […]",
  "data": [
    {"smiles": "O=C1CC[C@@]2(O)[C@H]3Cc4ccc(O)c5c4[C@@]2(CCN3CC2CC2)[C@H]1O5", "note": "[NTX, naltrexone]", "values": [
      {"measurement": "Alcohol self-administration overall, relative efficacy of drug conditions", "result": "least significant effects"}
    ]}
  ]
}
